Test results reported in patent US10058533B2, “Pharmaceutical composition containing Ginkgolide B and Xa factor inhibitor, preparation method thereof and use thereof” (CHENGDU BAIYU PHARMACEUTICAL CO., LTD, priority 2014, dated 2018).

Protein sequences, listed by entry. Tags and fused reporters are not part of them. Residues count along the entry.
UniProt P00742, 41-179 partner limits assumed: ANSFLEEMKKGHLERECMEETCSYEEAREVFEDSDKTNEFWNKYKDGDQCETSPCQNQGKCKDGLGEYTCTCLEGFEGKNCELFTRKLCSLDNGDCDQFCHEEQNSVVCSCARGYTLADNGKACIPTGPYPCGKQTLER
UniProt P00742, 235-488 limits assumed: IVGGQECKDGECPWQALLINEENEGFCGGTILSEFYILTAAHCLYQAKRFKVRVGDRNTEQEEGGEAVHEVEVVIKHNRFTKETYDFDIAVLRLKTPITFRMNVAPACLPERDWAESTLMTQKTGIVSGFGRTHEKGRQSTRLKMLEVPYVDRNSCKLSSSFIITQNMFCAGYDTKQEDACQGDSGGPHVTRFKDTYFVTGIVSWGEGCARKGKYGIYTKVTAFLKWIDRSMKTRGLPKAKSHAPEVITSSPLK

Columns and labels:
FXa = FXa (Homo sapiens, UniProt P00742); conditions: cited from earlier work
factor Xa [1] = experiment: Plasma anti-factor Xa activity, rabbit wound-limb deep venous thrombosis forming model; format: in vivo; conditions: 5 mg/kg i.g., x ± SD
Description: Eight were taken as control group and the rest were treated by a striking device. Striking area was a round surface with the diameter of 1.5 cm, the wounding energy was calculated according to Ep=mgh, and the energy of each striking of the iron rod is 7.5 J.
Specifically: the rabbit was anesthetized by intravenous injection of 3% pentobarbital sodium at ear edge with the dose of 1 ml/kg. The rabbit was kept laying down at right side prostrate position and the left thigh was set on the striking platform. Found the trochanter of the left femur and set the striking head attached to area from the trochanter to the 1.5 cm below. The self-made striking device was used for striking the outer side of the thigh near-end, and the plaster was used for fixing the left limb on the hip/knee-bending area. When the plaster bandage was applied and the right hip was examined to move freely, the rabbit was kept to lay down until solidification. After the model establishment, the animal was allowed to drink water normally and was fed with granular food. No anticoagulant or antibiotic was used.
Animals were grouped after modeling. The drug was fed according to table 4 via oral gavage, once a day for 7 days continuously.
At 0.5, 1.0, 2.0, 3.0 and 4.0 h after the first administration, blood was taken from ear central artery. Plasma was separated and aPPT, PT and the anti-factor Xa activity were determined on an automatic coagulation detector.

factor Xa [2] = experiment: Anti-coagulation factor Xa activity in vitro (chromogenic substrate assay); format: biochemical, rabbit
Description: A chromogenic substrate assay was adopted, and plasma anti-Xa activity was determined on a microplate reader according to a kit specification and reference documents.

SMILES: CN1CCc2nc(C(=O)N[C@@H]3C[C@@H](C(=O)N(C)C)CC[C@@H]3NC(=O)C(=O)Nc3ccc(Cl)cn3)sc2C1 [Edoxaban]
- selectivity to FXa compared to FIIa (FXa): 104 times
- anti-factor Xa activity (factor Xa [1]; 0.5 h after administration): 0.25 ± 0.06 IU/ml
- anti-factor Xa activity (factor Xa [1]; 1 h after administration): 0.21 ± 0.08 IU/ml
- anti-factor Xa activity (factor Xa [1]; 2 h after administration): 0.20 ± 0.10 IU/ml
- anti-factor Xa activity (factor Xa [1]; 3 h after administration): 1.26 ± 0.09 IU/ml
- anti-factor Xa activity (factor Xa [1]; 4 h after administration): 1.26 ± 0.07 IU/ml
- anti-factor Xa activity (factor Xa [2]): 0.79 IU/ml
